# In patent US6515005B2, “Substituted azole derivatives as inhibitors of corticotropin releasing factor” (Bristol-Myers Squibb Company, priority 2000, dated 2003):
# The chains behind the UniProt entries cited, without tags or fusion partners. Residues count along the entry.
# UniProt P34998, 24-415 limits assumed: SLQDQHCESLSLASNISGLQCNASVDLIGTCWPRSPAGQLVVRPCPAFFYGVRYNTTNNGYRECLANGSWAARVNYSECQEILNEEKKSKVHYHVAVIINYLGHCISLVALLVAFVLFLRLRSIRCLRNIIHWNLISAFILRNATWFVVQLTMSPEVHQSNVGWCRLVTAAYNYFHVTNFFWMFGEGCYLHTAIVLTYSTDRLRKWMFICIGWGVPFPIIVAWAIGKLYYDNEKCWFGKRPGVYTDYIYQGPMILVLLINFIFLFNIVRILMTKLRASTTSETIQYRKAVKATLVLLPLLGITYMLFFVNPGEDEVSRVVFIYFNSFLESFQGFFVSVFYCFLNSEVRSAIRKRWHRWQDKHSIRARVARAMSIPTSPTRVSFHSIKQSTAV
# Biological target: CRF1 receptor (Homo sapiens, UniProt P34998)
# Assay: CRF1 receptor radioligand binding assay ([125I]-oCRF competition, IMR-32 cell membranes)
# Details: [125I]-oCRF (100 pM)
# [1] = Additional Compounds from Second Set of Examples (Table 3)
# [2] = Second Set of Examples (Table 2)
IC50 [1],IC50 [2],Compound
94 nM,–,CCCN(Cc1sc(N(CC)c2c(C)cc(C)cc2Cl)nc1C(F)(F)F)CC1CC1
–,78 nM,CCCN(Cc1ccc(F)c(F)c1)Cc1sc(Nc2c(Cl)cc(Cl)cc2Cl)nc1C(F)(F)F
79 nM,–,CCCN(Cc1sc(N(CC)c2ccc(C(C)C)cc2Br)nc1C(F)(F)F)CC1CC1
–,68 nM,C=CCN(Cc1sc(Nc2c(Cl)cc(Cl)cc2Cl)nc1C(F)(F)F)CC1CC1
–,111 nM,FC(F)(F)CN(Cc1ccc(Cl)cc1)Cc1sc(Nc2c(Cl)cc(Cl)cc2Cl)nc1C(F)(F)F
